Test results: patent publication US8742132B2, “Indolylmaleimide derivatives processes for their production and pharmaceutical compositions” (Novartis AG, priority 2006, dated 2014)

Target: Human recombinant PKCα (Homo sapiens, UniProt P17252)
Assay: Protein Kinase Cα Assay
Settings: read-out: IC50 PKCα; single compounds
Description: The compounds of the invention are tested for their activity on different PKC isoforms according to the following method. Assay is performed in a white with clear bottom 384-well microtiterplate with non-binding surface. The reaction mixture (25 μl) contains 1.5 μM of a tridecapeptide acceptor substrate that mimics the pseudo substrate sequence of PKC a with the Ala→Ser replacement, 10 μM ^33P-ATP, 10 mM Mg(NO3)2, 0.2 mM CaCl2, PKC at a protein concentration varying from 25 to 400 ng/ml (depending on the isotype used), lipid vesicles (containing 30 mol % phosphatidylserine, 5 mol % DAG and 65 mol % phosphatidylcholine) at a final lipid concentration of 0.5 mM, in 20 mM Tris-HCl buffer pH 7.4 +0.1% BSA. Incubation is performed for 60 min at room temperature. Reaction is stopped by adding 50 μl of stop mix (100 mM EDTA, 200 μM ATP, 0.1% Triton X-100, 0.375 mg/well streptavidin-coated SPA beads in phosphate buffered saline w/o Ca, Mg. After 10 min incubation at room temperature, the suspension is spun down for 10 min at 300 g. Incorporated radioactivity is measured in a Trilux counter for 1 min. IC50 measurement is performed on a routine basis by incubating a serial dilution of inhibitor at concentrations ranging between […]. IC50 values are calculated from the graph by curve fitting with XL Fit® software. […]

IC50: 1.4 nM
Structure (SMILES): Cc1nn2ccc(CN(C)C)cc2c1C1=C(c2c[nH]c3c(C)cccc23)C(=O)NC1=O
